Here are results for 1 substance from patent US20170067882A1.

By UniProt entry, the sequences of proteins in these tests, tags left out. Residues count along the entry.
UniProt Q13477, 19-317: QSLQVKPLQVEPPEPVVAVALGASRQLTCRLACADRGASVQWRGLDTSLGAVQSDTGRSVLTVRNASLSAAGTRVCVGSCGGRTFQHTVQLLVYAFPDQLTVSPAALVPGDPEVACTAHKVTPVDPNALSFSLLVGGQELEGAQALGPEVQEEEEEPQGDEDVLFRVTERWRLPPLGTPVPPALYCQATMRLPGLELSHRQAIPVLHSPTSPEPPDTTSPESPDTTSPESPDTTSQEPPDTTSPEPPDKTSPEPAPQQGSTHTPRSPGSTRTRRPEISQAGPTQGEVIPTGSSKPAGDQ
UniProt Q13477, 19-382: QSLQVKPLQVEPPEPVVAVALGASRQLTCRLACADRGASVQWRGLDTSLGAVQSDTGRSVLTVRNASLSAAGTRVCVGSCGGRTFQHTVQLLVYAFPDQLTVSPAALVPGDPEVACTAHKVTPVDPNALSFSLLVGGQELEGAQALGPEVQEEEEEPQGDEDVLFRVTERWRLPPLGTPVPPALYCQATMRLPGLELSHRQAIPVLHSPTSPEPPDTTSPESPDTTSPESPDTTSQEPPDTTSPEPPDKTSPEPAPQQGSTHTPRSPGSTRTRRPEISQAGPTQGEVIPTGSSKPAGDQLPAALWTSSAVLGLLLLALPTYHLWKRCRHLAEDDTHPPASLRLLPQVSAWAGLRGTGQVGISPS

As usually defined, the Kd is a measure of binding affinity in units of concentration. The low end stands for a tighter complex, the high end for a looser complex.

Experiment [1] has as its target endogenous, shed, soluble MAdCAM in normal human serum (human) (UniProt Q13477). The experiment is described as follows: BSI, 25% normal human serum, soluble target 250 pM.
The target is the same in experiment [2]. Put plainly: BSI, 10% normal human serum, soluble target 100 pM.
Experiment [3] has the same target. Put plainly: linear extrapolation of the BSI apparent Kd values against serum MAdCAM concentration.
The target of experiment [4] is full length hMAdCAM stably expressed in CHO cells (vesicle preparation) (human) (UniProt Q13477). The experiment is described as follows: BSI, CHO-MAdCAM vesicles in PBS against soluble MAdCAM in 0.1% serum.
The target of experiment [5] is endogenous, shed, soluble MAdCAM in normal human serum (human) (UniProt Q13477). Put plainly: BSI, 35% normal human serum, soluble target 350 pM.
For experiment [6], the target named is endogenous membrane-bound MAdCAM in human IBD colon tissue vesicles (human) (UniProt Q13477). Put plainly: BSI, human colon tissue vesicles bathed in 25% interstitial-like homogenate (holds 11 pM soluble MAdCAM); ensemble Kd.
Experiment [7] has the same target. The experiment is described as follows: BSI, human IBD colon vesicle preparation (VRH) in PBS; anti-IL6 mAb as reference.
In experiment [8] the target is full length hMAdCAM stably expressed in CHO cells (vesicle preparation) (human) (UniProt Q13477). Put plainly: BSI, CHO-rhMAdCAM vesicles in PBS; target at 34 pM; wild type vesicles as reference.
The target of experiment [9] is endogenous membrane-bound MAdCAM in human IBD colon tissue vesicles (human) (UniProt Q13477). The experiment is described as follows: BSI, human colon tissue vesicles bathed in 87.5% interstitial-like homogenate (holds 39 pM soluble MAdCAM); ensemble Kd.
The target is the same in experiment [10]. Put plainly: BSI, human colon vesicles (VRH) in PBS against soluble hMAdCAM.
The target in experiment [11] is Soluble human MAdCAM-IgG1 Fc fusion protein (human) (UniProt Q13477). The experiment is described as follows: BSI, free solution, both partners untethered in buffer; target at 10 pM.
For experiment [12], the target named is endogenous, shed, soluble MAdCAM in normal human serum (human) (UniProt Q13477). Put plainly: BSI, free solution, 0.1% normal human serum pool; target at 1 pM.
Experiment [13] shares this target. The experiment is described as follows: BSI, 50% normal human serum, soluble target 500 pM.

Consider “PF-00547659, a fully human anti-MAdCAM IgG2 monoclonal antibody”, for which the Apparent Kd in experiment [1] stood at 0.11 nM; in experiment [2], 0.03 nM; in experiment [5], 0.174 nM; in experiment [13] it was 0.285 nM. Besides, the estimated apparent Kd extrapolated to 100% serum in [3] is 0.598 nM. The same substance had a fold change of Kd against the true Kd measured in 0.1% serum in experiment [4] of 20 fold. Besides, the dissociation constant Kd in experiment [6] amounted to 0.262 nM; in [7], 0.155 nM; in experiment [8] it was 0.134 nM; in [9], 0.36 nM; in [11], 0.0071 nM; in [12], 0.0075 nM. The fold decrease in binding affinity compared to soluble hMAdCAM in experiment [10] stood at 20 fold.
